# Measured values published in patent publication US20250154154A1 (Relay Binney Street, 2nd Floor, priority 2020, published 2025).
# The chains behind the UniProt entries cited, without tags or fusion partners.
# UniProt P12931, whole entry: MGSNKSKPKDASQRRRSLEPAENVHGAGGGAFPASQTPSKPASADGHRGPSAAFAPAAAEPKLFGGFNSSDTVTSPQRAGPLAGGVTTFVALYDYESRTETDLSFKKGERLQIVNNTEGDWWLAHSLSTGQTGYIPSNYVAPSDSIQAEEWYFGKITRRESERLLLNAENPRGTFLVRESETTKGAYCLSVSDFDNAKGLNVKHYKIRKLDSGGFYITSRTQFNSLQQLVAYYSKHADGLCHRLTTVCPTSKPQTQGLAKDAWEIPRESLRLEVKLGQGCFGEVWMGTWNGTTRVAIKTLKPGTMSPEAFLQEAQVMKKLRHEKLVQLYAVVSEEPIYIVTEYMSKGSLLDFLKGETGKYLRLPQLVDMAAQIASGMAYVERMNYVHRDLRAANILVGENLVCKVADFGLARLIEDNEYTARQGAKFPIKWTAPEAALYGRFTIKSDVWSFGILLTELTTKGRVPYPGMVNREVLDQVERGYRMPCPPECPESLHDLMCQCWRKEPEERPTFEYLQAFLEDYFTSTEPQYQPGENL
# Assays:
# SRC = SRC (Homo sapiens, UniProt P12931); experiment: SRC Biochemical Assay Protocol (microfluidic mobility shift assay, FLPeptide4 substrate); details: read-out: Src Biochemical Assay Protocol IC50
# RBE cells = experiment: Cell Viability Protocol (CellTiterGlo), RBE cells
# [1] = test system: phospho-S6RP (Ser 235/236) in RBE cells; experiment: Cellular Proliferation Protocol (cellular phospho-S6RP HTRF), RBE cells; details: read-out: Cellular Proliferation Protocol IC50, 6 hours treatment, RBE or SNU-1079 cells, cell line not given
pIC50 (SRC),pIC50 (SRC; tested form: formate (1.3 equivalents of formic acid)),Compound,"pIC50 (RBE cells; read-out: Cell Viability Protocol IC50, RBE or SNU-1079 cells, 72 or 120 hour, cell line and time not given, tested form: formate (1.3 equivalents of formic acid))","pIC50 (RBE cells; read-out: Cell Viability Protocol IC50, RBE or SNU-1079 cells, 72 or 120 hour, cell line and time not given)",pIC50 [1]
6.00 to 8.00,–,CN(C)C/C=C/C(=O)N1CC(C#Cc2c(-c3ccc(Oc4ccccc4)cc3)c3c(N)ncnc3n2C)C1 [III-84],–,–,–
–,6.00 to 8.00,COc1cc(Oc2ccccc2)ccc1-c1c(C#C[C@@H]2[C@H]3CN(C(=O)/C=C/CN(C)C)C[C@@H]23)n(C)c2ncnc(N)c12,> 8.00,–,–
5.00 to 6.00,–,C=CC(=O)N1CCC(N2CC(C#Cc3[nH]c4ncncc4c3-c3ccc(Oc4ccccc4)cc3)C2)CC1,–,6.00 to 8.00,6.00 to 8.00

# pIC50: −log10 of the molar value. Like-named read-outs stand apart in the source and are kept apart here.
